From article PMC6377692 (EJNMMI Research, 2019) come the findings set out here.

The chains behind the UniProt entries cited, without tags or fusion partners. Residues count along the entry.
UniProt F8V479, 24-463: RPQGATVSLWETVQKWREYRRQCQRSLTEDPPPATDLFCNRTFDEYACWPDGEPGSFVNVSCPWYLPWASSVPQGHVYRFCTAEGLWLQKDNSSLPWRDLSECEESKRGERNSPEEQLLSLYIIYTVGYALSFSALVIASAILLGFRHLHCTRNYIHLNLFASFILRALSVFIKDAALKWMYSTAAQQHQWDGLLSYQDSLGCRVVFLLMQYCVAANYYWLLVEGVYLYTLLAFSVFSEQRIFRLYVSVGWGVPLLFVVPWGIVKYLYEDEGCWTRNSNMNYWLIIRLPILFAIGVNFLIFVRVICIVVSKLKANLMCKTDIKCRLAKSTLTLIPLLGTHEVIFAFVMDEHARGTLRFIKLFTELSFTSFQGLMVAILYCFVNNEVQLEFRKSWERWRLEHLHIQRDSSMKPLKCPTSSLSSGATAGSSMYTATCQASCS
UniProt P30082, 27-485: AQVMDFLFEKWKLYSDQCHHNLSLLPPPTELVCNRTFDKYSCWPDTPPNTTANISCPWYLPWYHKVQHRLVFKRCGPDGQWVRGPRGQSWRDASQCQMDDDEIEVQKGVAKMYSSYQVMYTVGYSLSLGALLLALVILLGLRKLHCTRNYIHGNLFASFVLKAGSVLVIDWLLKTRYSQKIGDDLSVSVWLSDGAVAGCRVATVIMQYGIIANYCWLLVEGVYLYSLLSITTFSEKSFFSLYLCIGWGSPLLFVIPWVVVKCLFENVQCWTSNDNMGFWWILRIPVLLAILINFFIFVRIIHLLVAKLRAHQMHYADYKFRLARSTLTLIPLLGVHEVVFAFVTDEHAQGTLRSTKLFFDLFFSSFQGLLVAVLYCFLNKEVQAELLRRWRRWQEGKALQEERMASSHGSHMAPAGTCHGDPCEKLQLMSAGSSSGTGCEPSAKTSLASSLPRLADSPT

Structures are written as SMILES.

For data set [1], the target named is T1, cynomolgus monkey GLP1R (Macaca fascicularis, UniProt F8V479).
T1 construct: expressed in transfected cells; host or cells: HEK293
Nature of the data set: functional cAMP assay in transfected HEK293 cells. Type of data set: cell-based. Here is the method: (§1) The same assay was performed for GLP-1R to assess cross-binding. Details of the assay procedure are described in Additional file 1 and have also been described elsewhere.
(§2) cAMP content of cells was determined using a kit from Cisbio Corp. (cat. no. 62AM4PEJ) based on HTRF (Homogenous Time Resolved Fluorescence). For preparation, cells were split into T175 culture flasks and grown overnight to near confluency in medium (DMEM / 10% FBS). Medium was then removed and cells washed with PBS lacking calcium and magnesium, followed by proteinase treatment with accutase (Sigma-Aldrich cat. no. A6964). Detached cells were washed and resuspended in assay buffer (1 x HBSS; 20 mM HEPES, 0.1% BSA, 2 mM IBMX) and cellular density determined. They were then diluted to 400000 cells/ml and 25 µl-aliquots dispensed into the wells of 96-well plates. For measurement, 25 µl of test compound in assay buffer was added to the wells, followed by incubation for 30 minutes at room temperature. After addition of HTRF reagents diluted in lysis buffer (kit components), the plates were incubated for 1 hr, followed by measurement of the fluorescence ratio at 665 / 616 nm.

Data set [2] deals with T2, rat GCGR (Rattus norvegicus, UniProt P30082).
T2 construct: host or cells: HEK293
Nature of the data set: functional cAMP assay in transfected HEK293 cells. Type of data set: cell-based. How it is done: as §1
as §2, with “temperature.” for “temperature. After addition of HTRF reagents diluted in lysis buffer (kit components), the plates were incubated for 1 hr, followed by measurement of the fluorescence ratio at 665 / 616 nm.”
On the technique in general: Changes in cAMP serve as a functional read-out for many G protein-coupled receptors.

Data set [3] deals with T3, rat GLP1R (Rattus norvegicus, UniProt P32301).
T3 construct: expressed in transfected cells; host or cells: HEK293
T3 sequence (P32301 22-463): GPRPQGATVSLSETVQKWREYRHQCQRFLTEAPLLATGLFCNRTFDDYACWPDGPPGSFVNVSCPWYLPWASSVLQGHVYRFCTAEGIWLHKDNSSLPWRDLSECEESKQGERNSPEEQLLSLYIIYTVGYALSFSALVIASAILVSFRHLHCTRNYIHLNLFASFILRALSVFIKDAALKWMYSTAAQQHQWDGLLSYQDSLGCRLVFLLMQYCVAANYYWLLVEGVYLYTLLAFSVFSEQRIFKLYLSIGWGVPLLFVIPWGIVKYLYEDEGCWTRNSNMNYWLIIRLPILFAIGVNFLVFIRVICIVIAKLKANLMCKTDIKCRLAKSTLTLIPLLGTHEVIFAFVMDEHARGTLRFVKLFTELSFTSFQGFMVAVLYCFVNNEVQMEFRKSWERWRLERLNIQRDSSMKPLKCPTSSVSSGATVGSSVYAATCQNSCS
The experiment in a line: functional cAMP assay in transfected HEK293 cells. It is filed as cell-based. How it is done: as §1
as §2, with “temperature.” for “temperature. After addition of HTRF reagents diluted in lysis buffer (kit components), the plates were incubated for 1 hr, followed by measurement of the fluorescence ratio at 665 / 616 nm.”

The conditions of data set [4]: data not shown.
Data set [5] concerns the target T4, GCGR in rat liver sections (Rattus norvegicus, UniProt P30082).
T4 construct: from tissue; host or cells: frozen Sprague Dawley rat liver sections
Nature of the data set: in vitro autoradiography, liver sections. Type of data set: binding, Sprague Dawley rat. How it is done:
Liver and pancreas tissues were collected post-mortem from cynomolgus monkeys (NHP) and Sprague Dawley rats. The use of animal tissues collected post-mortem was approved by the Animal Research Ethical Committee of the Uppsala Region and was performed according to the Uppsala university guidelines on animal experimentation (UFV 2007/724).
Sections were added in duplicates in each individual assay, and each experiment was repeated at least three times with different batches of radioligand, except for rat sections that were only performed in one assay.
After incubation, the sections were washed three times in 150 mL PBS. Sections were carefully dried at 37 °C and then exposed against a digital phosphorimager plate overnight together with a 10-μl droplet of radioactive reference (cross-calibrated against a gamma counter) on an absorbent paper attached to an object glass. The phosphor imager plates were scanned using a Cyclone Plus Phosphor imager (Perkin Elmer) at 600 dpi, and the resulting autoradiograms analyzed by ImageJ software (NIH, Bethesda). Pixel values in counts/mm^2 were converted to Bq/mm^2 by the included reference. Bq/mm^2 was further converted to fmol/mm^2 by the known specific radioactivity (fmol/Bq) of each batch of radiopharmaceutical.

A short description of data set [6]: rat in vivo competition with precursor peptide. Particulars: male, Sprague Dawley, total radioactivity, tracer alone, 40 min (S01) or 60 min (S02) p.i., S02 baseline stated for liver and spleen, read-out: baseline binding in the liver. Also noted: species or system Sprague Dawley rats. How it is done: A competition study with each respective radiotracer precursor peptide was performed to investigate in vivo selectivity in selected tissues (the blood, heart, lung, liver, pancreas, spleen, kidney, muscle, and bone marrow).
Animals in each group (n = 4 for each radioligand) were co-injected with 1 mg/kg of either unlabelled DO3A-S01-GCG or -DO3A-S02-GCG peptide to determine the fraction of binding in each tissue which was receptor mediated.
The time point of euthanasia for each radiotracer was determined based on liver-to-blood ratio obtained from the biodistribution study above, as well as the radionuclide half-life and known radiotracer precursor half-life in blood plasma. Tissue resection and analysis of radioactive uptake in each tissue (expressed as SUV) were performed and analyzed as described above.

A short description of data set [7]: rat in vivo distribution (ex vivo organ counting). Also noted: species or system Sprague Dawley rats. Particulars: male, Sprague Dawley, liver, iv, 1.3 ug/kg, total radioactivity, i.v., read-out: retention in the liver. How it is done: The in vivo distribution over time was performed to identify the optimal time point for an in vivo blocking study and to calculate the residence time for dosimetry (see detail below). Thus, measurement at more time points was prioritized over repetitions at individual time points.
The animals were kept at a constant temperature (25 °C) and humidity (50%) in a 12-h light-dark cycle. Food and water were provided ad libitum.
Each radiotracer was administered into the tail vein of conscious animals as a bolus in 0.5–0.6 mL of PBS (pH 7.4) as vehicle. […] Given the constraints of the specific radioactivity for each radioligand, the dosing was designed to minimize the given peptide mass (in order to stay below mass effect levels) while still yielding enough radioactive signal for well counter measurements.
At pre-determined post injection time points (5, 10, 20, 40, 60, 90, 120, and 180 min), two animals per each point were euthanized by CO2. Tissues were immediately extracted and weighed, and the radioactive content was measured in the well counter. […] The well counter readings were decay corrected to the time of injection and the mass of the extracted tissues and expressed as Bq/cc. […]

Take `CC[C@H](C)[C@H](NC(=O)[C@H](Cc1ccccc1)NC(=O)[C@H](CCC(=O)O)NC(=O)[C@H](CCC(N)=O)NC(=O)[C@H](C)NC(=O)[C@H](CCCNC(=N)N)NC(=O)[C@H](CCCNC(=N)N)NC(=O)[C@H](CO)NC(=O)[C@H](CCC(=O)O)NC(=O)[C@H](CC(C)C)NC(=O)[C@H](CCC(N)=O)NC(=O)[C@H](CCCCN)NC(=O)[C@H](CO)NC(=O)[C@H](Cc1ccc(O)cc1)NC(=O)[C@H](CC(=O)O)NC(=O)[C@H](CO)NC(=O)[C@@H](NC(=O)[C@H](Cc1ccccc1)NC(=O)[C@@H](NC(=O)CNC(=O)[C@H](CCC(N)=O)NC(=O)[C@H](CO)NC(=O)[C@@H](N)Cc1cscn1)[C@@H](C)O)[C@@H](C)O)C(=O)N[C@@H](CCC(=O)O)C(=O)N[C@@H](Cc1c[nH]c2ccccc12)C(=O)N[C@@H](CC(C)C)C(=O)N[C@@H](CC(C)C)C(=O)N[C@@H](C)C(=O)NCC(=O)NCC(=O)N1CCC[C@H]1C(=O)N[C@@H](CCC(=O)O)C(=O)N[C@@H](CO)C(=O)NCC(=O)N[C@@H](C)C(=O)N1CCC[C@H]1C(=O)N1CCC[C@H]1C(=O)N1CCC[C@H]1C(=O)N[C@@H](CO)C(=O)N[C@@H](CSCCS(=O)(=O)CCN1CCN(CC(=O)O)CCN(CC(=O)O)CCN(CC(=O)O)CC1)C(N)=O` [DO3A-S02-GCG]: the EC50 in data set [1] turned out to be 1.98 nM; in data set [2], 0.0476 nM; in data set [3], 3.96 nM.

The molecule `CC[C@H](C)[C@H](NC(=O)[C@H](Cc1ccccc1)NC(=O)[C@H](CCC(=O)O)NC(=O)[C@H](CCC(N)=O)NC(=O)[C@H](C)NC(=O)[C@H](CCCNC(=N)N)NC(=O)[C@H](CCCNC(=N)N)NC(=O)[C@H](CO)NC(=O)[C@H](CCC(=O)O)NC(=O)[C@H](CC(C)C)NC(=O)[C@H](CCC(N)=O)NC(=O)[C@H](CCCCN)NC(=O)[C@H](CO)NC(=O)[C@H](Cc1ccc(O)cc1)NC(=O)[C@H](CC(=O)O)NC(=O)[C@H](CO)NC(=O)[C@@H](NC(=O)[C@H](Cc1ccccc1)NC(=O)[C@@H](NC(=O)CNC(=O)[C@H](CCC(N)=O)NC(=O)[C@H](CO)NC(=O)[C@@H](N)Cc1cscn1)[C@@H](C)O)[C@@H](C)O)C(=O)N[C@@H](CCC(=O)O)C(=O)N[C@@H](Cc1c[nH]c2ccccc12)C(=O)N[C@@H](CC(C)C)C(=O)N[C@@H](CC(C)C)C(=O)N[C@@H](C)C(=O)NCC(=O)NCC(=O)N1CCC[C@H]1C(=O)N[C@@H](CCC(=O)O)C(=O)N[C@@H](CO)C(=O)NCC(=O)N[C@@H](C)C(=O)N1CCC[C@H]1C(=O)N1CCC[C@H]1C(=O)N1CCC[C@H]1C(=O)N[C@@H](CO)C(=O)N[C@@H](CSCCS(=O)(=O)CCN1CCN(CC(=O)O)CCN(CC(=O)O)CCN(CC(=O)O)CC1)C(N)=O` [[^68Ga]Ga-DO3A-S02-GCG, metal not drawn] returned an exposure in data set [4] of 325 ng·h/mL. Further, in data set [4], the “plasma t½” value stood at 7.2 min. For the same molecule, in data set [5] (10 μM precursor, n = 1, read-out: inhibition of tracer binding to liver sections by co-incubation with own precursor peptide), the inhibition at 10 µM is over 50%. Further, the “inhibition of tracer binding to liver sections by co-incubation with GCG” value in data set [5] (5–10 nM tracer, 10 μM GCG, 60 min RT, n = 1) is given as over 50%. Moreover, the SUV in data set [6] was 0.5 SUV; in data set [7] it was under 1 SUV.

For orientation: EC50 means the concentration giving half of the maximal effect. What is called inhibition is how much of the control response was suppressed.
